From patent US12440528B2, “Methods of treating ovarian cancer with hemp extract” (Ecofibre USA Inc., priority 2021, dated 2025)

System: patient derived organoids (PD3D Cell Culture)
Test: Calculated IC50 in PD3D cell culture of the patient derived organoids
Assay type: cell-based, human

Cetuximab
Calculated IC50 PD3D Cell Culture: Not Reached

Kadcyla: agent tested on the patient derived organoids
Calculated IC50 PD3D Cell Culture: Not Reached
